Measured values from patent US20160303053A1, “POLYMER-COATED THERAPEUTIC NANOPARTICLES” (priority 2015, published 2016).

Legend:
[1] = test system: HER-2 negative MDA-MB-231 cells; experiment: Cell growth inhibition, calcein AM live cell staining; type: cell-based, human
Protocol: (§1) The effectiveness of combination treatments using PCL-CPT-TTZ nanoparticles were evaluated in HER-2 positive BT-474 breast cancer cells (ATCC) and HER-2 negative cell line MDA-MB-231 (ATCC). The cells were cultured in Hybri-Care (ATCC), and RPMI 1640 (Life Technologies), respectively supplemented with 10% FBS (Corning) and 1% (100 units/ml) Penicillin-Streptomycin (Gibco) at 37° C. and 5% CO2. HUVEC cells (Invitrogen) were used as a normal cell control that was cultured in Medium 200 (Invitrogen) with Low Serum Growth Supplement (LSGS) kit (Invitrogen). Cells were plated in 96-well tissue culture plates (Corning) at a density of 10,000 cells/well in 200 μl respective medium. After 18 hours of growth, 10 μl of nanoparticles made in Example 5 were added to the medium. The final concentrations of CPT were 0.1, 0.2, 0.5, 1, 2, 5 and 10 μg/ml. The corresponding PCL concentrations were 2.9, 5.8, 14.6, 29.1, 58.2, 145.5, and 291.1 μg/ml, respectively, and TTZ concentrations were 0.4, 0.8, 1.9, 3.8, 7.5, 18.8, and 37.7 μg/ml, respectively. CPT-PCL-BSA nanoparticles made in Example 5 were used as a HER-2 non-specific control. Cells were also treated with the same concentrations of PCL solutions to determine its cytotoxic effects. Cells treated with 10 μl of PBS were used as positive controls. 3 hours later, the medium was replaced with fresh medium. After 72 hours, the plates were centrifuged at 100 rcf for 15 min. The supernatants were discarded. Live cells were stained with 2 μM calcein AM (Life technologies) in PBS by incubating at room temperature for 30 min. The fluorescence intensity (F.I.) of calcein AM was measured using 485/528 excitation/emission filters using the plate reader (BioTek Synergy 2). The percentage inhibition in cell growth was calculated using the following equation (2): […]
(§2) The therapeutic activity of CPT-PCL-TTZ nanoparticles was evaluated in HER-2 positive BT-474 (FIG. 10) and HER-2 negative MDA-MB-231 cells (FIG. 11) at varying concentrations. These are the previously reported dosage amounts of CPT in human breast cancer cells. […]

[2] = test system: HER-2 positive BT-474 breast cancer cells; experiment: as above; type: cell-based, human; conditions: 10 μg/ml CPT
Protocol: as §1, §2

Substance: CPT-PCL-TTZ nanoparticles: CPT-PCL nanoparticles with Trastuzumab (TTZ) antibody conjugated to the surface via amide bonds
- difference in growth inhibition between CPT-PCL-BSA and CPT-PCL-TTZ nanoparticles [1]: No difference
- BT-474 cell growth inhibition ([2]; 3 h exposure, read after 72 hours): 61.6%
- cell growth inhibition relative to CPT-PCL-BSA nanoparticles ([2]; BT-474): 1.5 fold
